Experimental data reported in patent EP4847505A1, “4-METHYLSULFONYL-SUBSTITUTED PIPERIDINE UREA COMPOUNDS” (dated 2026).

Chains of the proteins cited; added tags and fusions are not shown.
UniProt Q9BE39, whole entry: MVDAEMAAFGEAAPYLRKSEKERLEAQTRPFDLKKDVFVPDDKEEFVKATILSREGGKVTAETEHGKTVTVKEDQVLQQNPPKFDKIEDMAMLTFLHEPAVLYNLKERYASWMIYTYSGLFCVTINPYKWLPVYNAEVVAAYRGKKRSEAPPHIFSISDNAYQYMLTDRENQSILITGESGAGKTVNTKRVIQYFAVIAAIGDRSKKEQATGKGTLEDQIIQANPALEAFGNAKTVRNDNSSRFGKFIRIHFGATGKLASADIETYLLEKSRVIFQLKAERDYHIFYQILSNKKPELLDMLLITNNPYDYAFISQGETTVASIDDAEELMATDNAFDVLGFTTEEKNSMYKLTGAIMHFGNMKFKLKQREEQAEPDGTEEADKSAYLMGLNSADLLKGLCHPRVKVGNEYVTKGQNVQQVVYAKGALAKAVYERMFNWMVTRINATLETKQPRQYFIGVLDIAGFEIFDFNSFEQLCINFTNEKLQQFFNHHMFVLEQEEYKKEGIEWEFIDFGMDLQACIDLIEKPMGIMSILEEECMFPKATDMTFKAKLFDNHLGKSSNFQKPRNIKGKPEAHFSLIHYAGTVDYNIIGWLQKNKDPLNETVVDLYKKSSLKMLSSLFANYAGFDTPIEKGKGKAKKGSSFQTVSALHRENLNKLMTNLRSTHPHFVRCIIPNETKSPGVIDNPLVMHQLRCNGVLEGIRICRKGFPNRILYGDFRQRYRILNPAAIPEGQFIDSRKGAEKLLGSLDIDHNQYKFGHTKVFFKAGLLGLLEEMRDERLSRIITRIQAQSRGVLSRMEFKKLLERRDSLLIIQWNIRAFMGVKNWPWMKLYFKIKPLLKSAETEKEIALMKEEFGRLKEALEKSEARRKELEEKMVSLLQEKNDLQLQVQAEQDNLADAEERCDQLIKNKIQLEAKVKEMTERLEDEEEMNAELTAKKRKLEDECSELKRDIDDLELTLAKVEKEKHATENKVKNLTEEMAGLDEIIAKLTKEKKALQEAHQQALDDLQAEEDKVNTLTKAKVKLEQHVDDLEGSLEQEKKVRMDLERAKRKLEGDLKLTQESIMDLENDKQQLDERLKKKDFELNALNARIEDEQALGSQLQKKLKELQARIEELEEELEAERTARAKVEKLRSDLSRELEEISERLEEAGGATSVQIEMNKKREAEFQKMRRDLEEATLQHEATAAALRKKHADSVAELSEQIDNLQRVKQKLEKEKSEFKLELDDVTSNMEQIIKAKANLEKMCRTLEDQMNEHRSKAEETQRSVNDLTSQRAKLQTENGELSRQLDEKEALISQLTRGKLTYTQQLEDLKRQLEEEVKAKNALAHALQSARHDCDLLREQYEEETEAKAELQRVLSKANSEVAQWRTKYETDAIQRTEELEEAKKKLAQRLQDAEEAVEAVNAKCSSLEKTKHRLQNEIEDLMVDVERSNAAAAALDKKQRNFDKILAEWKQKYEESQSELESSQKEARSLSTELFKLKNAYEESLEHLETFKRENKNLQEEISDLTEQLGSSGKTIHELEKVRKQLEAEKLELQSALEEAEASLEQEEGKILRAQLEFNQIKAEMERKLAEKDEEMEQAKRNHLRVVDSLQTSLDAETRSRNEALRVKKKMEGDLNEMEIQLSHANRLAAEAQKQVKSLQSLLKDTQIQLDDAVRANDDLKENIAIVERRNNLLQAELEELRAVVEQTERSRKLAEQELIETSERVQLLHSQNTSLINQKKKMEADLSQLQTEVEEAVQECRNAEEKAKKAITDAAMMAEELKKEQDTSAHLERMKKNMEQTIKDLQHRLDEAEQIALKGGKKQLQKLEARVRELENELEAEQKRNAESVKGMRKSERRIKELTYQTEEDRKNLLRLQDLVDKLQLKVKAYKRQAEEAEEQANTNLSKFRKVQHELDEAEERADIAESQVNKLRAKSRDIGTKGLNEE
UniProt P85100, whole entry partner: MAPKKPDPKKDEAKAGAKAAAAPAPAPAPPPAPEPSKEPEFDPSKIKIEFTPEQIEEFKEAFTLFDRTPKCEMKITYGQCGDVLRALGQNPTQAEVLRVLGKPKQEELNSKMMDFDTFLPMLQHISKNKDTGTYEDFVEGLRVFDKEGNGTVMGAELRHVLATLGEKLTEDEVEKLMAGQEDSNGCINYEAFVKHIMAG
UniProt Q3SZE5, whole entry partner: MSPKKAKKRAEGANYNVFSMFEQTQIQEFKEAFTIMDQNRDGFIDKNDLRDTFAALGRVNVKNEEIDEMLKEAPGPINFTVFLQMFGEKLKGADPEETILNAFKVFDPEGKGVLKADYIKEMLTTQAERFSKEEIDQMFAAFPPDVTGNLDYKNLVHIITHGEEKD

The compounds below were run against bovine cardiac myosin (Bos taurus, UniProt Q9BE39) (assay: Myosin activation assay (PK/LDH-coupled ATPase, bovine cardiac myofibrils)). Conditions: concentration at which the total response is increased by twenty percent.
Procedure: Small molecule agents were assessed for their ability to activate the enzymatic activity of bovine cardiac myosin using a biochemical assay that couples the release of ADP (adenosine diphosphate) from cardiac myosin to an enzymatic coupling system consisting of pyruvate kinase and lactate dehydrogenase (PK/LDH) and monitoring the absorbance decrease of NADH (at 340 nm) as a function of time. PK converts ADP to ATP (adenosine triphosphate) by converting PEP (phosphoenolpyruvate) to pyruvate. Pyruvate is then converted to lactate by LDH by converting NADH (nicotinamide adenine dinucleotide) to NAD (oxidized nicotinamide adenine dinucleotide). The source of cardiac myosin was from bovine heart in the form of skinned myofibrils. Prior to testing small molecule agents, the bovine myofibrils were assessed for their calcium responsiveness and the calcium concentration that achieves either a 50% (pCa50 or pCa = ~ 6) or < 5% (pCa = 10) activation of the myofibril system was chosen as the final condition for assessing the activation activity of the small molecule agents. All enzymatic activity was measured in a buffered solution containing 12 mM PIPES (piperazine-N,N'-bis(2-ethanesulfonic acid), 2 mM magnesium chloride at pH 6.8 (PM12 buffer). Final assay conditions were 1 mg/mL of bovine cardiac myofibrils, 0.4 mM PK/LDH, 50 uM ATP, 0.1 mg/mL BSA (bovine serum albumin), 10 ppm antifoam, 2 mM BME, 0.5 mM NADH, 1.5 mM PEP at the desired free calcium concentration required to achieve either 50% or < 5% activation of the myofibrils.
A dilution series of compound was created in DMSO such that the final desired concentration of compound would be achieved in a volume of 100 µL with a fixed DMSO concentration of 3.3% (v/v). Typically a 1 µL of the dilution series was added to a 384 well plate to achieve a 10 point dose response. Following the addition of 14 µL of a solution containing bovine cardiac myofibrils, PK/LDH and a solution of calcium (that achieved the desired activation), the enzymatic reaction was started with the addition of 15 µL of a solution containing ATP, PEP and NADH. The reaction progress was followed in a PerkinElmer Envision plate reader at ambient temperature using clear bottom plates. The plate reader was configured to read absorbance at 340 nm in kinetics mode for 15 minutes. Data were recorded as the slope of the absorbance response to time. The slopes of the absorbance response as a function of time were normalized to slopes on the plate containing DMSO. This normalized rate was then plotted as a function of small molecule concentration and the data was fitted to a four-parameter fit using EXCEL XLfit. The concentration at which the total response is increased by twenty or fifty percent is reported as AC20 or AC50. […] Table 2. Myosin Activation of Selected Compoundsa

SMILES	Myosin Activation (AC20)
CC(C)n1cc(S(=O)(=O)CC2CCN(C(=O)Nc3ccncc3)CC2)cn1	+ (+ represents myosin activation value AC20 > 5 µM)
CC(C)(C1CCN(C(=O)Nc2ccnnc2)CC1)S(=O)(=O)c1ccccc1C(F)(F)F	++ (++ represents myosin activation value AC20 from 2 µM - 5 µM)
Cc1cc(S(=O)(=O)C(F)(F)C2CCN(C(=O)Nc3ccnnc3)CC2)n(C(C)C)n1	+ (+ represents myosin activation value AC20 > 5 µM)
CC(C)(C1CCN(C(=O)Nc2ccns2)CC1)S(=O)(=O)c1cc(F)cc(F)c1	+++ (+++ represents myosin activation value AC20 < 2 µM)
CC(F)(C1CCN(C(=O)Nc2ccnnc2)CC1)S(=O)(=O)c1ccccc1Cl (centres unmarked)	+++ (+++ represents myosin activation value AC20 < 2 µM)
O=C(Nc1ccncc1)N1CCC(CS(=O)(=O)c2cccc(F)c2)CC1	+ (+ represents myosin activation value AC20 > 5 µM)
Cc1ncc(NC(=O)N2CCC(C(C)(C)S(=O)(=O)c3cccc(F)c3)CC2)cn1	+ (+ represents myosin activation value AC20 > 5 µM)
O=C(Nc1ccnnc1)N1CCC(C(F)(F)S(=O)(=O)c2ccc(OC(F)(F)F)cc2)CC1	++ (++ represents myosin activation value AC20 from 2 µM - 5 µM)
Cn1cc(S(=O)(=O)C(C)(F)C2CCN(C(=O)Nc3ccnnc3)CC2)c(C(F)F)n1 (centres unmarked)	+++ (+++ represents myosin activation value AC20 < 2 µM)
Cn1cnc(S(=O)(=O)C(C)(C)C2CCN(C(=O)Nc3ccnnc3)CC2)c1	+ (+ represents myosin activation value AC20 > 5 µM)
Cc1ccc(NC(=O)N2CCC(C(C)(C)S(=O)(=O)c3cc(C(F)F)nn3C)CC2)cn1	++ (++ represents myosin activation value AC20 from 2 µM - 5 µM)
Cc1ccc(NC(=O)N2CCC(C(C)(C)S(=O)(=O)c3cn(C)nc3C(F)F)CC2)cn1	++ (++ represents myosin activation value AC20 from 2 µM - 5 µM)
Cn1cc(S(=O)(=O)[C@@](C)(F)C2CCN(C(=O)Nc3ccnc(F)c3)CC2)c(C(F)F)n1	+++ (+++ represents myosin activation value AC20 < 2 µM)
Cn1cc(S(=O)(=O)[C@@](C)(F)C2CCN(C(=O)Nc3ccc(C(F)(F)F)nc3)CC2)c(C(F)F)n1	+ (+ represents myosin activation value AC20 > 5 µM)
O=C(Nc1ccns1)N1CCC(C2(S(=O)(=O)c3cccc(F)c3)CC2)CC1	+++ (+++ represents myosin activation value AC20 < 2 µM)
CC(C)(C1(O)CCN(C(=O)Nc2ccnnc2)CC1)S(=O)(=O)c1cccc(F)c1	+ (+ represents myosin activation value AC20 > 5 µM)
Cn1nccc1S(=O)(=O)C(C)(C)C1CCN(C(=O)Nc2ccnc(F)c2)CC1	++ (++ represents myosin activation value AC20 from 2 µM - 5 µM)
CC(F)(C1CCN(C(=O)Nc2ccnnc2)CC1)S(=O)(=O)c1ccccc1C#N (centres unmarked)	+++ (+++ represents myosin activation value AC20 < 2 µM)
COc1ncccc1S(=O)(=O)C(C)(F)C1CCN(C(=O)Nc2ccnnc2)CC1 (centres unmarked)	++ (++ represents myosin activation value AC20 from 2 µM - 5 µM)
COc1ccc(S(=O)(=O)[C@](C)(F)C2CCN(C(=O)Nc3ccon3)CC2)cn1	+ (+ represents myosin activation value AC20 > 5 µM)
O=C(Nc1ccnnc1)N1CCC(CS(=O)(=O)c2cccc(F)c2)CC1	+ (+ represents myosin activation value AC20 > 5 µM)

SMILES	Myosin Activation (AC20)
CC(F)(C1CCN(C(=O)Nc2ccno2)CC1)S(=O)(=O)c1cccc(F)c1 (centres unmarked)	++ (++ represents myosin activation value AC20 from 2 µM - 5 µM)
C[C@@H](O)c1cc(NC(=O)N2CCC([C@@](C)(F)S(=O)(=O)c3cn(C)nc3C(F)F)CC2)ccn1	+ (+ represents myosin activation value AC20 > 5 µM)
Cn1cc(S(=O)(=O)C(C)(C)C2CCN(C(=O)Nc3ccnnc3)CC2)c(C(F)(F)F)n1	++ (++ represents myosin activation value AC20 from 2 µM - 5 µM)
Cn1nc(C(F)F)cc1S(=O)(=O)C(C)(F)C1CCN(C(=O)Nc2ccnnc2)CC1 (centres unmarked)	+++ (+++ represents myosin activation value AC20 < 2 µM)
Cc1cc(NC(=O)N2CCC(C(C)(C)S(=O)(=O)c3cn(C)nc3C(F)F)CC2)cnn1	+ (+ represents myosin activation value AC20 > 5 µM)
Cc1cc(NC(=O)N2CCC([C@@](C)(F)S(=O)(=O)c3cn(C)nc3C(F)F)CC2)ccn1	+ (+ represents myosin activation value AC20 > 5 µM)
Cn1nc(Cl)cc1S(=O)(=O)C(C)(C)C1CCN(C(=O)Nc2ccc(F)nc2)CC1	+++ (+++ represents myosin activation value AC20 < 2 µM)
Cn1nccc1S(=O)(=O)C(F)(F)C1CCN(C(=O)Nc2ccnnc2)CC1	+ (+ represents myosin activation value AC20 > 5 µM)
Cn1cc(S(=O)(=O)C(C)(C)C2CCN(C(=O)Nc3ccon3)CC2)c(C(F)F)n1	++ (++ represents myosin activation value AC20 from 2 µM - 5 µM)
O=C(Nc1ccnnc1)N1CCC(C(F)(F)S(=O)(=O)c2cnn3ccccc23)CC1	++ (++ represents myosin activation value AC20 from 2 µM - 5 µM)
[2H]C([2H])([2H])n1cc(S(=O)(=O)[C@@](F)(C2CCN(C(=O)Nc3ccon3)CC2)C([2H])([2H])[2H])c(C(F)F)n1	+++ (+++ represents myosin activation value AC20 < 2 µM)
Cc1cnc(NC(=O)N2CCC(C(C)(C)S(=O)(=O)c3cccc(F)c3)CC2)cn1	+ (+ represents myosin activation value AC20 > 5 µM)
Cc1ccccc1S(=O)(=O)C(C)(C)C1CCN(C(=O)Nc2ccncc2)CC1	+++ (+++ represents myosin activation value AC20 < 2 µM)
COc1ccccc1S(=O)(=O)C(C)(F)C1CCN(C(=O)Nc2ccnnc2)CC1 (centres unmarked)	++ (++ represents myosin activation value AC20 from 2 µM - 5 µM)
Cc1ccccc1S(=O)(=O)C(C)(F)C1CCN(C(=O)Nc2ccnnc2)CC1 (centres unmarked)	+++ (+++ represents myosin activation value AC20 < 2 µM)
CC(C)(C1CCN(C(=O)Nc2ccnnc2)CC1)S(=O)(=O)c1cc(F)cc(F)c1	+++ (+++ represents myosin activation value AC20 < 2 µM)
C[C@H](O)c1cc(NC(=O)N2CCC(C(F)(F)S(=O)(=O)c3cccc(F)c3)CC2)ccn1	+ (+ represents myosin activation value AC20 > 5 µM)
Cn1nc(C(F)(F)F)cc1S(=O)(=O)C(C)(C)C1CCN(C(=O)Nc2ccon2)CC1	++ (++ represents myosin activation value AC20 from 2 µM - 5 µM)
CC(C)(C1CCN(C(=O)Nc2ccnnc2)CC1)S(=O)(=O)c1ccn2nccc2c1	+++ (+++ represents myosin activation value AC20 < 2 µM)
CC(F)(C1CCN(C(=O)Nc2ccnnc2)CC1)S(=O)(=O)c1ccc(C(F)(F)F)nc1 (centres unmarked)	+++ (+++ represents myosin activation value AC20 < 2 µM)
